Source: patent US20180086821A1 (MAYO FOUNDATION FOR MEDICAL EDUCATION AND RESEARCH, published 2018)

Target: rabbit actin (rabbit, UniProt P68135 3-377)
Test: direct ELISA, antigen coated at 5 µg/ml

binding result: no binding (tested: mAbs at 2 µg/ml)
B1: mAb A2B5 (antibody, mouse IgM, V domains shown)
VH: EVKLVESGGGLVQPGGSLRLSCATSGFTFSDFYMEWVRQPPGKRLEWIAASRNKANDYTTEYSASVKGRFIVSRDTSQSILYLQMNALRAEDTAIYYCARDARQLGLPAWFAYWGQGTLVTVSA
VL: QIVLTQSPAIMSASPGEKVTISCSASSSVSYMYWYQQKPGSSPKPWIYRTSNLASGVPARFSGSGSGTSYSLTISSMEAEDAATYYCQQYHSYPLTFGAGTKLELKR
notes: Mouse IgM kappa
